Test results from patent US20230372337A1, “Combination Therapy Comprising an AXL Inhibitor” (BERGENBIO ASA, priority 2020, published 2023).

Key:
Type in all cases: cell-based, mouse
Yumm1.7 cells = assay: qRTPCR of IFN related genes in Yumm1.7 cells in vitro (Example 4); conditions: IFNB without bemcentinib
4T1 cells [1] = assay: RNA sequencing of 4T1 cells in vitro (Example 4); conditions: without supplemental Gas6
LL2 cells = assay: qRTPCR of IFN related genes in Lewis lung carcinoma (LL2) cells in vitro (Example 4); conditions: IFNB 48 hours
Protocol: 4T1 cells (ATCC, CRL-2539) were cultured in RPMI-1640 (Sigma, Cat. #R8758) supplemented with 10% fetal bovine serum (FBS), L-glutamine (4 mM), streptomycin (5 μg/ml) and penicillin (5 U/ml). […] Lewis lung carcinoma cells LL/2 (LLC1) (ATCC, CRL-1642™) were cultured in Dulbecco's Modified Eagle's Medium ATCC® 30-2002™ (4 mM L-glutamine, 4500 mg/L glucose, 1 mM sodium pyruvate, and 1500 mg/L sodium bicarbonate).
RNA was extracted from snap frozen tumors using the RNEasy Microarray Tissue Mini kit from Qiagen following the manufacturer's instructions. As tumors contained Doxorubicin and powderizing them could expose personnel to harmful substances, the RNA was extracted in a closed system using the GentleMACS dissociator and M Tubes. Purity and concentration of RNA was measured using Nanodrop. […] The plates were analyzed using Light Cycler 480 (Roche) and data were analyzed using the Qiagen Data Analysis Centre and Graph Pad (Prism).
Chemotherapeutic agents commonly used to treat lung cancer patients were evaluated for effects on the IFN response. […] Sting agonist DMXAA, doxorubin and IFNB were also evaluated for comparison.
The IC50 of the different drugs were calculated by resazurin viability assay. […]

4T1 cells [2] = assay: qRTPCR of IFN related genes in 4T1 cells in vitro (Example 4); conditions: IFNB 48 hours, supplemental Gas6, N=24 ISG

B1: IFNB: interferon beta used for direct IFN stimulation of cells (protein, UniProt P01574 22-187, looked up)
Interferon beta: MSYNLLGFLQRSSNFQCQKLLWQLNGRLEYCLKDRMNFDIPEEIKQLQQFQKEDAALTIYEMLQNIFAIFRQDSSSTGWNETIVENLLANVYHQINHLKTVLEEKLEKEDFTRGKLMSSLHLKRYYGRILHYLKAKEYSHCAWTIVRVEILRNFYFINRLTGYLRN
What does the source list for B1?
Fold changes of many ISG (Yumm1.7 cells): above 100 fold; IFN related gene expression by RNA sequencing (4T1 cells [1]): upregulated; ISG significantly upregulated (number) (LL2 cells): 6; ISG with increased expression, fold change above 2 (number) (4T1 cells [2]): 10
